Experimental findings from PubChem BioAssay AID504408 (Broad Institute, 2011) are described below.

The list shows a part of the results, in another mix than the full data. The source made the active and inactive calls.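 Rule for the calls: active = mean replicate activation of at least 50% with a set share of replicates each reaching 50%; inconclusive = only one of those two conditions met; inactive = mean below 50% and too few replicates reaching it.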

The nature of the experiment: HSF-1 response element luciferase induction – NIH3T3-HGL cells, MG132 stress, luminescence, single point, primary screen (AID 504408).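 Note: 0% = median of the neutral control wells and 100% = twice that signal.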 Conditions: NIH3T3-HGL HSF-1 luciferase reporter, MG132, 8 h; at 9 µM; hits give high values; 100% = twice DMSO control signal. For orientation: In a reporter assay the amount or activity of a reporter protein is the signal.
Turning to `Oc1ccccc1CNc1ccccn1`, the activation is inactive: 24.3%.
The value for `Cc1ccc(NP(=O)(Oc2ccccc2F)Oc2ccccc2F)nc1` was inactive: -0.704%.
`CN(C(=O)Cc1ccc(Cl)c(Cl)c1)[C@H]1CCCC[C@@H]1N1CCCC1`: the activation was inactive: -7.06%.
Regarding `CCOP(=O)(Nc1ccccc1)OCC`, the activation was inactive: 3.11%.
With `Cc1cc(SC(NC(=O)c2ccc(F)cc2)C(Cl)(Cl)Cl)ncn1` (stereo not given), the activation is inactive: 33.5%.
In the case of `O=C(O)c1ccccc1[As](=O)(O)O`, the activation was inactive: 3.13%.
With `CC(=O)Nc1ccc([As](=O)(O)O)cc1`, the activation is inactive: 5.54%.
The value for `O=P(Nc1nc2ccc(Cl)cc2s1)(c1ccccc1)c1ccccc1` was inactive: 29.8%.
For `CCN(N=Nc1nonc1N)c1nonc1N`, the activation was inactive: -5.07%.
For `Nc1cccc2ccc([As](=O)(O)O)cc12`, the activation was inactive: -5.4%.
The value for `O=[N+]([O-])c1cc([N+](=O)[O-])c(CCN2CCOCC2)c([N+](=O)[O-])c1` was inactive: 3.99%; that for `CCNC(=S)/N=C(\N)N[N+](=O)[O-]` was inactive: 29.7%.
Consider `O=C(NC1CCS(=O)(=O)C1)NP(=S)(Oc1ccccc1)Oc1ccccc1` (stereo not given), for which the activation is inactive: 11.2%.
Regarding `Cc1ccc(NP(=O)(Oc2cccc(C)c2)Oc2cccc(C)c2)nc1`, the activation is inactive: 6.46%.
Turning to `CCOC(=O)NC(Sc1ccccc1)C(Cl)(Cl)Cl` (stereo not given), the activation was inactive: 1.84%.
The value for `c1ccc(-c2nn[nH]n2)c(-c2nn[nH]n2)c1` was inactive: -11.2%.
The value for `CN(C)C(=O)Oc1noc2ccccc12` was inactive: 11.1%.
As for `Cc1ccccc1OP(=O)(Nc1ccccn1)Oc1ccccc1C`, the activation was inactive: -0.903%.
With `CC(=O)NC(SC(=S)N(CC(C)C)CC(C)C)C(Cl)(Cl)Cl` (stereo not given), the activation is inactive: -10.5%.
Regarding `Cc1ccc(OP(=O)(Nc2ccccn2)Oc2ccc(C)cc2)cc1`, the activation is inactive: 7.18%.
The value for `COC(=O)c1cc2c(s1)N=C(c1ccccc1)N(C)P2(=O)N1CCOCC1` (stereo not given) was inactive: -18.1%.
Regarding `CCC(=O)N1C2C3N(C(=O)CC)C1C1N(C(=O)CC)C(C(N1C(=O)CC)N3C(=O)CC)N2C(=O)CC`, the activation was inactive: 1.96%.
As to `O=C(OC1CN2CCC1CC2)c1ccccc1` (stereo not given), the activation is inactive: 4.64%.
In the case of `CC(C)(C)C(=O)NC(Sc1ccccc1)C(Cl)(Cl)Cl` (stereo not given), the activation was inactive: 11.6%.
The value for `CCOc1ccc(C2=NCC(CBr)S2)cc1` (stereo not given) was inactive: -6.58%; that for `O=P1(Nc2nc3ccc(Cl)cc3s2)COc2ccccc2O1` (stereo not given) was inactive: 37.1%; that for `CC(=O)Nc1ccc(Oc2c([N+](=O)[O-])cc([N+](=O)[O-])cc2[N+](=O)[O-])cc1` was inactive: -11.1%.
For `CC(=O)Nc1ccc([As](=O)(O)O)c(O)c1`, the activation was inactive: -8.68%.
As to `CC(=O)c1ccc(N2CC2c2ccncc2)cc1` (stereo not given), the activation was inactive: -13.4%.
As for `C[C@@H]1C=CCP(=O)(Oc2ccccc2)O1` (stereo not given in full), the activation is inactive: 1.98%.
On to `C[C@H]1OP(=O)(Oc2ccccc2)C[C@@H]2O[C@@H]21` (stereo not given in full), for which the activation is inactive: -5.84%.
The value for `c1nnnn1CCn1cnnn1` was inactive: -14.4%; that for `CC(C)C(=O)NC(Sc1ccccc1)C(Cl)(Cl)Cl` (stereo not given) was inactive: -47.6%; that for `O=P(Nc1nccs1)(c1ccccc1)c1ccccc1` was inactive: -4.31%.
Regarding `C[C@H]1OP(=O)(Oc2ccccc2)[C@H](O)[C@H](O)[C@H]1N=[N+]=[N-]` (stereo not given in full), the activation was inactive: 13.9%.
In the case of `O=P(Nc1nc2ccccc2s1)(c1ccccc1)c1ccccc1`, the activation was inactive: 2.59%.
Take `O=P(Nc1ccccn1)(c1ccc(Br)cc1)c1ccc(Br)cc1`: the activation is inactive: -1.41%.
With `CN(C)C1(CNC(=O)c2ccc(Cl)c(S(N)(=O)=O)c2)CCCCC1`, the activation is inactive: 38.8%.
In the case of `Nc1ccc([As](=O)(O)c2ccc([N+](=O)[O-])cc2)cc1`, the activation was inactive: -1.43%.
For the compound `C(Cc1nn[nH]n1)Cc1nn[nH]n1`, the activation was inactive: 21.3%.
The value for `O=C(OC1CN2CCC1CC2)c1cccc(Cl)c1` (stereo not given) was inactive: -57.8%.
The value for `O=[N+]([O-])c1ccc(O)c(/C=N/Nc2ccc([N+](=O)[O-])cc2[N+](=O)[O-])c1` was inactive: -4.38%; that for `CC(=O)NC(SC(=S)N(C)C)C(Cl)(Cl)Cl` (stereo not given) was inactive: 18.7%.
`O=[N+]([O-])c1ncn(CCn2cnc([N+](=O)[O-])n2)n1`: the activation is inactive: -10.5%.
Take `O=[As](O)(c1ccccc1)c1ccc(O)cc1`: the activation is inactive: -2.17%.
